The test addresses Cannabinoid receptor 2 (Homo sapiens, UniProt P34972). As to the kind of experiment: Displacement of [3H]-CP55940 from human CB2 receptor transfected in HEK-293EBNA cells after 90 mins by luminescence counting analysis. Format: cell-based.

Protein sequences, listed by entry. Tags and fused reporters are not part of them.
UniProt P34972, whole entry: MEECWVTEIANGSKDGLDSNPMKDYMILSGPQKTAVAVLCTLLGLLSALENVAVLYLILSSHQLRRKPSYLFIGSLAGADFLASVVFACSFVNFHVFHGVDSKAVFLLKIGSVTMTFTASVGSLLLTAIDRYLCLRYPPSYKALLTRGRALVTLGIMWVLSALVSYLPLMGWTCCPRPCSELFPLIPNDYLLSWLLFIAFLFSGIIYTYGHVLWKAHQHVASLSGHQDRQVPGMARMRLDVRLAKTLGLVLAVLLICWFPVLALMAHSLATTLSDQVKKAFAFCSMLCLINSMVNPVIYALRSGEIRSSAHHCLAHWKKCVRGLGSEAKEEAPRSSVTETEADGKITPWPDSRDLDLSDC

pKi: −log10 of the molar value.

For orientation: pKi means the Ki on a negative log10 scale, so that one unit is a factor of ten. Low readings indicate a large Ki, high ones a small Ki. `CCCCCCC(C)(C)c1cc(OC)c([C@H]2C=C(CO)[C@H]3C[C@@H]2C3(C)C)c(OC)c1` gave a negative-log Ki (pKi) of 7.95.

These data come from ChEMBL document CHEMBL3112400, “Cannabinoid agonists showing BuChE inhibition as potential therapeutic agents for Alzheimer's disease” (Eur J Med Chem, 2014).
